# Biological target: β1-adrenoceptors (guinea pig atria) (Cavia porcellus, UniProt H0W3H1)
# The chains behind the UniProt entries cited, without tags or fusion partners. Residues count along the entry.
# UniProt H0W3H1, 1-470: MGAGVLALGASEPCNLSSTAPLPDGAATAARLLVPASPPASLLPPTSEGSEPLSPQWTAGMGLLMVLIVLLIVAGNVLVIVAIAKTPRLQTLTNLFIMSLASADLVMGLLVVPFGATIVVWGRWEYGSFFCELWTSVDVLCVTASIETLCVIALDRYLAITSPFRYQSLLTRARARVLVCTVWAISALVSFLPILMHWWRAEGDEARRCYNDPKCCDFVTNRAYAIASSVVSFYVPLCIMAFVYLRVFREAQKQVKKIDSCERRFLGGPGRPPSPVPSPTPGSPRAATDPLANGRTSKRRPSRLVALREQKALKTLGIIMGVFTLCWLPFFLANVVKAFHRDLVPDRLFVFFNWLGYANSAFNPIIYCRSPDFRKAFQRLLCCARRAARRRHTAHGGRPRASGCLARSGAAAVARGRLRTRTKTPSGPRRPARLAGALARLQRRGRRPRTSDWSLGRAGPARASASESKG
# Experiment: chronotropic response of spontaneously beating guinea pig right atria (β1-adrenergic activity)
compound,measurement,value
"COc1cc(CC2NCCc3cc(O)c(O)cc32)cc(OC)c1OC (stereo not shown) [TMQ, trimetoquinol, reference compound]",EC50,30.2 nM
